# Data from patent publication US6420532.
# Chains of the proteins cited; added tags and fusions are not shown.
# UniProt P49146, whole entry: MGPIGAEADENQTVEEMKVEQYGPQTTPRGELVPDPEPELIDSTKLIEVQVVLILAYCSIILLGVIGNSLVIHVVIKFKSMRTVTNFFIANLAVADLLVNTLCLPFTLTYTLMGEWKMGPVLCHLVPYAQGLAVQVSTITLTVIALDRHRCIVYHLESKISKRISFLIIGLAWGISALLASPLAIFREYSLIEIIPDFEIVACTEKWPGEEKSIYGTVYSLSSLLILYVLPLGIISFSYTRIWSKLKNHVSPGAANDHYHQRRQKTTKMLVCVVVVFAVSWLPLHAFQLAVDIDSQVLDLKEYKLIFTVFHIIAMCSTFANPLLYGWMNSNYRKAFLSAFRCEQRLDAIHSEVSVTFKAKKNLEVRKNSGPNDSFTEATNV
# Tests used:
# [1] = target: human hippocampal Y2 receptor (clone CG-13) (human) (UniProt P49146); test: 125I-PYY displacement, COS-7 membranes, Ki from IC50
# [2] = target: human hippocampal Y2 receptor (clone CG-13) (human) (UniProt P49146); test: 125I-PYY displacement binding assay (Table 9, binding column)
# [3] = target: human hippocampal Y2 receptor (clone CG-13) (human) (UniProt P49146); test: 125I-PYY displacement, COS-7 membranes, Ki from IC50; remark: listed apart in the source
Substance,Ki [1] [nM],Ki [2] [nM],Ki [3] [nM]
"human NPY, P01303 29-64 (peptide; C-terminal amide; other documents disagree on this pair)",0.69,0.74,0.74
"PP, salmon (peptide)",,0.17,0.17
